Measured values taken from ChEMBL document CHEMBL5252580, “Ionization and lipophilicity in nonpolar media mimicking the cell membrane interior” (Bioorg Med Chem, 2023).

Experiment: Lipophilicity, log P of the compound in octanol/water system by potentiometric titration method
Type: physicochemical

CC(C)Cc1ccc(C(C)C(=O)O)cc1 (stereo unspecified) [IBUPROFEN]
logP: 4
